This is an account of results in PubChem BioAssay AID2112 (National Center for Advancing Translational Sciences (NCATS), 2009).

The list shows a part of the results, in another mix than the full data. Some of these compounds have results that are not shown, active ones among them. Active and inactive are the calls of the source. The call rests on the fitted dose curve; in most records, active means well fitted inhibition curve with a large enough effect; inconclusive means small, poorly fitted or top-dose-only effect, or effect the other way, or another doubt; inactive means no such curve, though single readings can be large or run the other way.

The target of this assay is Lysosomal alpha-glucosidase (Homo sapiens) (UniProt P10253). In words: qHTS Assay for Inhibitors and Activators of Human alpha-Glucosidase From Spleen Homogenate.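 Further: 0% = enzyme with vehicle and -100% = no enzyme basal signal.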 Particulars: 4-MU-alpha-glucoside fluorescence; at 79.9 µM (top of the series). The text has this: NIH Chemical Genomics Center [NCGC] NIH Molecular Libraries Probe Production Centers Network [MLPCN] MLPCN Grant: R03 MH084841-01 Assay Submitter (PI): Wei Zheng NCGC Assay Overview: Alpha-glucosidase is responsible for the hydrolysis of terminal, non-reducing 1,4-linked alpha-D-glucose residues, which releases alpha-D-glucose. It is a lysosomal hydrolase that is required for the degradation of a small percentage (1-3%) of cellular glycogen in humans. Deficiency of this enzyme results in glycogen-storage disease type II (GSDII), also referred to as Pompe disease, an autosomal recessive disorder. Structurally normal glycogen is accumulated in the lysosomes and cytoplasm in affected patients, primarily in muscle tissues. Excessive glycogen storage within lysosomes may interrupt normal functioning of other organelles and leads to cellular injury. In turn, this leads to enlargement and dysfunction of the entire organ involved (eg: cardiomyopathy and muscle weakness). It has been reported that the improper folding and trafficking of alpha-glucosidase resulting from genetic mutations may account for a significant number of Pompe patients. […] We optimized this alpha-glucosidase assay in 1536-well plate format for identification of novel small molecule inhibitors or activators with structures other than the sugar analogs in order to develop new pharmacological chaperones. In particular, this assay is directed towards discovering compounds active in a more natural setting, tissue homogenate, that may have been missed by screens of the purified enzyme under more stringent conditions.
NCGC Assay Protocol Summary: This is a fluorogenic enzyme assay with 4-methylumbelliferyl-alpha-D-glucopyranoside as the substrate and human spleen homogenate containing alpha-glucosidase as the enzyme preparation. Upon hydrolysis of this fluorogenic substrate, the resulting product, 4-methylumbelliferone (which excites at 365 nm and emits at 440 nm) can be detected by a fluorescence plate reader. Data were normalized to the controls for basal activity (without enzyme) and 100% activity (with enzyme). The AC50 values were determined from concentration-response data modeled with the standard Hill equation. Assay buffer: 50 mM citric acid (titrated with potassium phosphate to pH 5.0), 0.01% Tween-20 (pH 5.0 is an optimal condition for this enzyme assay) 1536-well assay protocol for the alpha-glucosidase from human spleen homogenate: (1) Add 2 ul/well spleen homogenate (1 ug) (2) Add 23 nL compounds in DMSO solution. The final titration was 0.5 nM to 58 uM. (3) Add 2 ul of substrate (1 mM final) (4) Incubate at 37 C for 40 min (5) Add 2 ul stop solution (1M NaOH and 1M Glycine mixture, pH 10) (6) Detect the assay plate in a ViewLux plate reader (PerkinElmer) with Ex=365 nm and Em=440nm. Keywords: Alpha-glucosidase, Pompe Disease, pharmacological chaperone, chaperone therapy, high throughput screening, alpha-glucosidase inhibitor, MLSMR, MLSCN, NIH Roadmap, qHTS and NCGC
(Quantitative high-throughput screening tests each substance at several concentrations.)
On to `COc1cccc(C(=O)NCC2(N3CCCCC3)CCCCC2)c1`, for which the activity change, negative = inhibition was inactive: -6.22%.
The same measure for `CN(C)c1cccc(C(=O)NCC2(N(C)C)CCCCC2)c1`: inactive: 4.3%.
For `COc1ccc(Br)c(C(=O)NCC2(N3CCCCC3)CCCCC2)c1` the value was inactive: -9.91%.
On to `O=C(OC1CN2CCC1CC2)C(CO)(c1ccccc1)c1ccccc1` (stereo unspecified), for which the activity change, negative = inhibition was inactive: -0.104%.
For `CC(C)N1C(=O)CC2(CCN(CCOC(=O)C(O)(c3ccccc3)c3ccccc3)CC2)C1=O` the value was inactive: -25.5%; for `CCN(CC)CC(C)C(C)OC(=O)C(O)(c1ccccc1)c1ccccc1` (stereo unspecified), inactive: -3.03%.
The same measure for `O=C(NCC1(N2CCCCC2)CCCCC1)c1cc([N+](=O)[O-])ccc1Cl`: inactive: 7.87%; for `CCN1CCCC(OC(=O)C2(O)c3ccccc3C=Cc3ccccc32)C1` (stereo unspecified): inactive: -2.41%; for `C=CCN1CCN(CCOC(=O)C(O)(c2ccccc2)c2ccccc2)CC1`: inactive: 7.23%.
For `Cc1ccccc1C(=O)NCC1(N2CCCCC2)CCCCC1` the value was inactive: -5.46%; for `CN(C)C1CCCC1OC(=O)C(O)(c1ccccc1)c1ccccc1` (stereo unspecified), inactive: 2.41%.
